The list shows a part of the results, in another mix than the full data. Some tests of the compounds listed are not included; inactive here does not mean inactive elsewhere. Activity calls are given as the source filed them.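 Rule for the calls: active = activation above the mean of controls blocked by dofetilide plus 5 SD; inactive = the rest.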
target: Voltage-gated inwardly rectifying potassium channel KCNH2 (Homo sapiens) (UniProt Q12809); test: PubChem AID 1511; details: CHO-hERG, FluxOR thallium flux, dofetilide IC70 present; at 10 µM; hits give high values;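 note: thallium influx through hERG after potassium depolarization seen as dye fluorescence rise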

Chains of the proteins cited; added tags and fusions are not shown.
UniProt Q12809, whole entry: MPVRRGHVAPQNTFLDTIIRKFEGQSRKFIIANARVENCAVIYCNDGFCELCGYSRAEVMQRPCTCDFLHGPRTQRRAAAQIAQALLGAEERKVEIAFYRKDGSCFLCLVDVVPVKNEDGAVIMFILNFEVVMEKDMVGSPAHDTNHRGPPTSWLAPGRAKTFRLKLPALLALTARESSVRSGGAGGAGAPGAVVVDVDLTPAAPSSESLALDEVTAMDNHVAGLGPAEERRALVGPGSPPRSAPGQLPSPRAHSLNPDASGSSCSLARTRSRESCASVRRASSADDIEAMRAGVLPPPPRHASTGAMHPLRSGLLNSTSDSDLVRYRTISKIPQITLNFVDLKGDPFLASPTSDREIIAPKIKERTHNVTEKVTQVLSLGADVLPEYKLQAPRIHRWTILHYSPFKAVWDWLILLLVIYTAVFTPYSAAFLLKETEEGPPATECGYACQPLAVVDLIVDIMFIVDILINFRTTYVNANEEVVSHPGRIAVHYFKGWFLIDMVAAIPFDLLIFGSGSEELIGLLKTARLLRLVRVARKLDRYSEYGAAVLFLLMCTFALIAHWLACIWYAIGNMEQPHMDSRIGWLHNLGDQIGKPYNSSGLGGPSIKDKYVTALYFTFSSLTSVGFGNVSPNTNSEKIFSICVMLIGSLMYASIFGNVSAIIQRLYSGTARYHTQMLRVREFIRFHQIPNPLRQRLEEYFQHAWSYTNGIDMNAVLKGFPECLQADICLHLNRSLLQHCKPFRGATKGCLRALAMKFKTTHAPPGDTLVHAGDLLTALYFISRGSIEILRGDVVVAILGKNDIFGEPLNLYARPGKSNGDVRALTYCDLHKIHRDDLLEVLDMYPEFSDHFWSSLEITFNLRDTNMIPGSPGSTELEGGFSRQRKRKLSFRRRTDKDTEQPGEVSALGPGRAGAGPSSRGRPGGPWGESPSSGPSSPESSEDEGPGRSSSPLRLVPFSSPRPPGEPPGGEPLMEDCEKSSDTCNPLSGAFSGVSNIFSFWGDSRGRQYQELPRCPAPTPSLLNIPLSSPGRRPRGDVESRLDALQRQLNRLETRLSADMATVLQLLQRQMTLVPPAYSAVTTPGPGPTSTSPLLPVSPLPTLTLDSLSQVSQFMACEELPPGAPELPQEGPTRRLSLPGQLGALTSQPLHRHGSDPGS

SMILES	activation (rescue from dofetilide block), less the hit threshold
O=C(NCC1(N2CCCCC2)CCCCC1)c1cc(F)c(F)cc1Cl	inactive: -2.06%
C=CCN1CCN(CCOC(=O)C(O)(c2ccccc2)c2ccccc2)CC1	inactive: -5.02%
O=C(NCC1(N2CCCCC2)CCCCC1)c1cccc(Br)c1	inactive: -6.7%
Cc1cc(C(=O)NCC2(N3CCCCC3)CCCCC2)ccc1[N+](=O)[O-]	inactive: -6.53%
CCN1CCCC(OC(=O)C2(O)c3ccccc3C=Cc3ccccc32)C1 (centres undefined)	inactive: -11.1%
COc1ccc(C(=O)NCC2(N(C)C)CCCCC2)cc1	inactive: -0.41%
CN(C)C1CCCC1OC(=O)C(O)(c1ccccc1)c1ccccc1 (centres undefined)	inactive: -12.8%
CN(C)c1ccc(C(=O)NCC2(N(C)C)CCCCC2)cc1	inactive: -4.01%
Cc1ccccc1C(=O)NCC1(N2CCCCC2)CCCCC1	inactive: -10.4%
CC(C)N1C(=O)CC2(CCN(CCOC(=O)C(O)(c3ccccc3)c3ccccc3)CC2)C1=O	inactive: -6.29%
COc1cc(SC)ccc1C(=O)NCC1(N(C)C)CCCCC1	inactive: 0.2%
CCN(CC)CC(C)C(C)OC(=O)C(O)(c1ccccc1)c1ccccc1 (centres undefined)	inactive: -11.9%
Cc1ccc(C(=O)NCC2(N3CCCCC3)CCCCC2)cc1	inactive: -5.04%
O=C(NCC1(N2CCCCC2)CCCCC1)c1cc([N+](=O)[O-])ccc1Cl	inactive: -1.27%
CN1[C@@H]2CC[C@H]1CC(OC(=O)C(O)(c1ccccc1)c1ccccc1)C2 (some centres undefined)	inactive: -9.68%
COc1ccc(Br)c(C(=O)NCC2(N3CCCCC3)CCCCC2)c1	inactive: -15.3%
CN(C)c1cccc(C(=O)NCC2(N(C)C)CCCCC2)c1	inactive: -8.54%
CC(C)Oc1ccc(C(=O)NCC2(N(C)C)CCCCC2)cc1	inactive: -0.64%
O=C(OC1CN2CCC1CC2)C(CO)(c1ccccc1)c1ccccc1 (centres undefined)	inactive: -5.22%
COc1ccc(Cl)cc1C(=O)NCC1(N(C)C)CCCCC1	inactive: -3.86%
COc1cccc(C(=O)NCC2(N3CCCCC3)CCCCC2)c1	active: 6.13%
O=C(NCC1(N2CCCCC2)CCCCC1)c1cccc(Cl)c1	inactive: -4.63%
CN(C)C1(CNC(=O)c2ccc(Br)cc2)CCCCC1	inactive: -6.22%
COc1cc(C(=O)NCC2(N(C)C)CCCCC2)c([N+](=O)[O-])cc1OC	inactive: -5.95%
